Screens (PubChem)
Rows were chosen to be rich in hits. Some 1.9% of all compounds tested hit in one or more screens of this group.
ARNT-TACC3 inh – disrupts binding between human ARNT and TACC3; 390,000 tested, 0.66% active; Q9Y6A5; inhibition, % at 9.99 µM; AlphaScreen His-ARNT PAS-B/GST-TACC3 binding, luminescence; TACC3 fragment carries E629A point mutation;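 active means mean inhibition of replicates at least 50% and at least half of replicates each reaching 50%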;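 further: 0% = complete ARNT plus TACC3 wells and 100% = ARNT alone without TACC3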
ERp5 block – inhibitors of human ERp5; Q15084; ERp5 insulin aggregation, absorbance 650 nm, 90 min; inhibition, % at 9.99 µM; 350,000 tested, 0.05% active;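 active means mean replicate inhibition above about 25%, with every replicate also reaching it, limit read from the data, passing the limit was not always enough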
PglD inh – PglD (C. jejuni) enzyme inhibition; purified PglD enzyme, DTNB colorimetric CoA detection; inhibition, % at 12.5 µM; 360,000 tested, 0.098% active; AID 602405; in the data active means inhibition above about 16%, passing the limit was not always enough
FGF22 binding – shifts melting point of recombinant human FGF22; activity (Tm shift, normalised), % at 9.99 µM; Q9HCT0; 340,000 tested, 1.5% active; recombinant FGF22 thermal shift, SYPRO orange fluorescence; percent of sucrose octasulfate shift, DMSO zero;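 active means mean Tm shift, scaled 0 neutral to 100 positive control, at about 1.3% or above, every replicate too, limit read from the data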
PDI turbidity – inhibitors of human protein disulfide isomerase. P07237. PDI insulin aggregation turbidity, A650, 90 min. inhibition, % at 10 µM. 350,000 tested, 0.052% active. AID 588391;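 active means mean inhibition across replicates of 30% or more, whatever share of single replicates reach that level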
UUG fidelity – modulators of start codon recognition fidelity in yeast. S. cerevisiae UUG-firefly luciferase reporter, luminescence/redox ratio. activity score, % at 18.7 µM. 0.13% of 350,000 active. AID 602363;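 active = replicate mean at a twofold rise or more, about +100% in these data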;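 also: firefly luciferase made from a UUG start codon reports start codon fidelity; reporter light over untreated wells divided by growth signal over untreated wells; some hits fall short of that in this replicate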
* = called active by the depositor.

For CCCC#Cc1cnc2c(c1)C(=O)N([C@@H](C)CO)C[C@@H](C)[C@@H](CN(C)C(=O)NCCC)O2 the results were ARNT-TACC3 inh -1, ERp5 block 4, PglD inh 2, FGF22 binding 0 and UUG fidelity -1.
`CCC1(CC)NC(=O)N(CC(=O)OC(C)C(=O)Nc2ccc(S(N)(=O)=O)cc2)C1=O` (centres undefined) gave ERp5 block 9, PglD inh -2, FGF22 binding 0, PDI turbidity -5 and UUG fidelity -4.
`CCC1(CC)NC(=O)N(CC(=O)OC(C)C(=O)Nc2ccc(NC(C)=O)cc2)C1=O` (centres undefined) gave ARNT-TACC3 inh 0, ERp5 block 28*, PglD inh 10, FGF22 binding 0, PDI turbidity 0 and UUG fidelity -12.
`CC(C)NC(=O)N1[C@@H](CO)[C@@H](c2ccccc2)C12CN(Cc1ccc(F)cc1)C2` gave ERp5 block 5 and FGF22 binding 0.
`O=C(Nc1ccc(F)cc1)c1cc(-c2ccccc2)no1` gave ARNT-TACC3 inh -10, ERp5 block 2, FGF22 binding 43* and PDI turbidity 2.
Screening O=c1cnnc(N/N=C/C2CC=CCC2)[nH]1 (centres undefined) returned ARNT-TACC3 inh 65*, ERp5 block -1, PglD inh 3, FGF22 binding 44*, PDI turbidity -2 and UUG fidelity -7.
For O=c1cnnc(N/N=C/c2ccc3c(c2)OCO3)[nH]1 the results were ARNT-TACC3 inh 15, ERp5 block -2, PglD inh -9, FGF22 binding 0, PDI turbidity -4 and UUG fidelity -17.
Screening C[C@@H]1CN([C@@H](C)CO)C(=O)c2cc(-c3ccc(C#N)cc3)cnc2O[C@H]1CN(C)CC1CCCC1 returned ARNT-TACC3 inh -6, ERp5 block 4, PglD inh -2, FGF22 binding 0 and UUG fidelity 93.
For C#CCOCCOCCOCCNc1nc(N2CCN(C(=O)CCCCCCCCCCNC(=O)[C@@H](CCC(=O)O)n3cc(CCCCCN)nn3)CC2)nc(N2CCN(C(=O)CCCCCCCCCCNC(=O)[C@H]([C@@H](C)CC)n3cc(CCCCCN)nn3)CC2)n1 the results were ARNT-TACC3 inh 49*, PglD inh -1, PDI turbidity 4 and UUG fidelity -3.
Screening C#CCOCCOCCOCCNc1nc(N2CCN(C(=O)[C@H](CCCCN)n3cc([C@@H](N)C(C)CC)nn3)CC2)nc(N2CCN(C(=O)[C@H](Cc3cc4ccccc4[nH]3)n3cc([C@@H](N)CC(C)C)nn3)CC2)n1 (some centres undefined) returned ARNT-TACC3 inh 35, PglD inh 4, PDI turbidity 44* and UUG fidelity 12.
`C#CCOCCOCCOCCNc1nc(N2CCN(C(=O)[C@H]([C@@H](C)CC)n3cc([C@@H](N)CO)nn3)CC2)nc(N2CCN(C(=O)[C@H](CCCCN)n3cc([C@@H](N)C(C)CC)nn3)CC2)n1` (some centres undefined) gave ARNT-TACC3 inh 27, ERp5 block -6, PglD inh 0, FGF22 binding 0, PDI turbidity 4 and UUG fidelity 32.
Screening C#CCOCCOCCOCCNc1nc(N2CCN(C(=O)CCCCCCCCCCNC(=O)[C@H]([C@@H](C)CC)n3cc(CCCCCN)nn3)CC2)nc(N2CCN(C(=O)CCCCCCCCCCNC(=O)[C@H](CCCCN)n3cc(CCCC(=O)O)nn3)CC2)n1 returned ARNT-TACC3 inh 0, PglD inh -2, PDI turbidity 2 and UUG fidelity -6.
Screening C#CCOCCOCCOCCNc1nc(N2CCN(C(=O)[C@H](Cc3ccc(O)cc3)n3cc([C@@H](N)C(C)CC)nn3)CC2)nc(N2CCN(C(=O)[C@H](CCCCN)n3cc([C@@H](N)CO)nn3)CC2)n1 (some centres undefined) returned ARNT-TACC3 inh 46*, PglD inh 2, PDI turbidity 11 and UUG fidelity 25.
For C[C@@H]1CN([C@H](C)CO)C(=O)c2cc(NC(=O)Nc3cccc4ccccc34)ccc2O[C@H]1CN(C)S(=O)(=O)c1ccc(Cl)cc1 the results were ARNT-TACC3 inh -3, ERp5 block -2, PglD inh -7, FGF22 binding 0 and UUG fidelity 9.
CC(C)(O)C#Cc1ccc(CN2CCN(Cc3ccsc3)C(CCO)C2)cc1 (centres undefined) was read as ERp5 block 3, FGF22 binding 43* and PDI turbidity 5.
`COCc1cc(CN2CCN(Cc3ccsc3)C(CCO)C2)ccc1OC` (centres undefined) gave ERp5 block -3, FGF22 binding 43* and PDI turbidity -1.
`CCn1cc(CN2CCN(Cc3cccc(OC)c3)C(CCO)C2)c(C)n1` (centres undefined) gave ERp5 block 0, FGF22 binding 43* and PDI turbidity -6.
For CCOc1ccc(CN2CCN(Cc3ccsc3)C(CCO)C2)cc1CO (centres undefined) the results were ERp5 block 1, FGF22 binding 0 and PDI turbidity -1.
CCn1cc(CN2CCN(Cc3ccc(OC)c(C)c3C)C(CCO)C2)c(C)n1 (centres undefined) was read as ARNT-TACC3 inh 24, ERp5 block 2, PglD inh -1, FGF22 binding 0, PDI turbidity -4 and UUG fidelity -6.
For C#Cc1ccc(CN2CCN(Cc3ccsc3)C(CCO)C2)cc1 (centres undefined) the results were ARNT-TACC3 inh -2, ERp5 block -2 and PDI turbidity 0.
For COc1ccc(-c2ccc(C3[C@H]4CNC[C@@H]3N4Cc3nccs3)cc2)cc1 (some centres undefined) the results were ERp5 block 4.
Screening COc1cc(OC)cc(C(=O)N[C@@H](CCSC)c2nc3ccccc3[nH]2)c1 returned ARNT-TACC3 inh -17, ERp5 block 1, PglD inh 6, FGF22 binding 43*, PDI turbidity 3 and UUG fidelity 1.
COc1cccc(C(=O)N[C@@H](CCSC)c2nc3ccccc3[nH]2)c1 was read as ARNT-TACC3 inh 10, ERp5 block -4, FGF22 binding 1 and PDI turbidity 4.
`COc1ccc(NC(=O)Nc2ccc3c(c2)C(=O)N([C@H](C)CO)C[C@@H](C)[C@@H](CN(C)Cc2ccc4c(c2)OCO4)OCCCC[C@@H](C)O3)cc1` gave ARNT-TACC3 inh 3, ERp5 block -7, PglD inh 0, FGF22 binding -1 and UUG fidelity 13.

2 compounds drawn at random from those above:
For CCOc1ccc(CN2CCN(Cc3ccsc3)C(CCO)C2)cc1CO (centres undefined) the results were ERp5 block 1, FGF22 binding 0 and PDI turbidity -1.
`COCc1cc(CN2CCN(Cc3ccsc3)C(CCO)C2)ccc1OC` (centres undefined) gave ERp5 block -3, FGF22 binding 43* and PDI turbidity -1.
